The text below walks through data of PubChem BioAssay AID540364 (The Scripps Research Institute Molecular Screening Center, 2011).

The entries are a selection whose mix differs from that of the whole data set. Calls of active or inactive are those of the source.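 The calls were made as follows: active = activation above the average of all compounds screened plus 3 SD, cutoff fixed separately per campaign (cut at about 7.5% in these data); inactive = the rest.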

The nature of the assay: GAA850 frataxin promoter reporter upregulation – cell-based, luciferase luminescence, HEK293 lucGAA850, primary screen (AID 540364).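 Also: 0% = DMSO wells and 100% = 10 µM SAHA wells.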 The settings on record: HEK293 lucGAA850 FXN promoter luciferase reporter, 24 h; at 6 µM; hits give high values; percent of 10 µM SAHA response. (In general: In a reporter assay the amount or activity of a reporter protein is the signal.)
Take `CN1CCC(Nc2ccc(Cl)cc2)CC1`: the activation was inactive: 1.71%.

As for `CCC(CO)(C(=O)OC1CN2CCC1CC2)c1ccccc1` (stereo not given), the activation is inactive: 2%.

In the case of `COc1cccc(C(=O)N(c2cc(C)cc(C)c2)C2CCN(C(=O)OC(C)(C)C)CC2)c1`, the activation was inactive: -0.59%.

Take `COc1cc(OC)cc(C(=O)NCC2(N3CCOCC3)CCCCC2)c1`: the activation is inactive: 0.27%.

For the compound `CCCOc1ccc(C(=O)NCC2(N(C)C)CCCCC2)cc1`, the activation is inactive: -0.99%.

Regarding `O=C(O)C1(Nc2ccccc2)CCN(Cc2ccccc2)CC1`, the activation is inactive: 2.76%.

For the compound `CC(C)(C)OC(=O)N1CCC(Nc2ccccc2)CC1`, the activation is inactive: 5.28%.

Take `CN1CCC(Nc2ccc(F)c(Cl)c2)CC1`: the activation was inactive: -0.28%.

`CCOc1ncccc1C(=O)NCC1(N2CCOCC2)CCCCC1`: the activation is inactive: 2.45%.

Take `Cn1c(=O)[nH]cc(N(CCCl)CCCl)c1=O`: the activation was inactive: -1.19%.

In the case of `CN(C)c1ccc(C(=O)NCC2(N3CCCCC3)CCCCC2)cc1`, the activation is inactive: 2.37%.

As to `O=C(NCC1(N2CCCCC2)CCCCC1)c1ccco1`, the activation is inactive: -0.02%.

For `CCN1CCC(Nc2cccc(F)c2)CC1`, the activation is inactive: 1.56%.

Turning to `Cc1ccccc1NC1(C#N)CCN(Cc2ccccc2)CC1`, the activation was inactive: -1.76%.

As for `Cc1ccc(NC2(C#N)CCN(Cc3ccccc3)CC2)cc1`, the activation is inactive: 0.8%.

Take `Fc1ccccc1NC1CCN(Cc2ccccc2)CC1`: the activation was inactive: -1.36%.

As for `Cc1ccc(C(=O)NCC2(N3CCCCC3)CCCCC2)o1`, the activation was inactive: 1.49%.

Regarding `COc1cc(OC)cc(C(=O)NCC2(N3CCCCC3)CCCCC2)c1`, the activation is inactive: 0.83%.

As to `CC(=O)N(c1ccccc1)C1CCNCC1`, the activation was inactive: 2.17%.

Turning to `CCCN1CCC(Nc2cc(OC)cc(OC)c2)CC1`, the activation was inactive: 0.61%.

On to `Cc1cc(N(CCCl)CCCl)ccc1C=O`, for which the activation was inactive: -3.62%.

Consider `c1ccc(CN2CCC(Nc3ccccc3)CC2)cc1`, for which the activation is inactive: -0.88%.

Turning to `CN(C)C1(CNC(=O)c2cccc(C#N)c2)CCCCC1`, the activation was inactive: 1.2%.

For the compound `CC(C)(C)OC(=O)N1CCC(N(C(=O)c2ccccc2)c2ccc(Cl)cc2)CC1`, the activation is inactive: -1.8%.

For `N#Cc1ccc(C(=O)NCC2(N3CCCCC3)CCCCC2)cc1`, the activation was inactive: 2.17%.

As to `O=C(OC1CN2CCC1CC2)C1c2ccccc2C=Cc2ccccc21` (stereo not given), the activation was inactive: -0.99%.

Regarding `N/C(=N\O)c1c(N)no[n+]1[O-]`, the activation was inactive: -1.36%.

Take `CCOC(=O)N1CCC(Nc2ccc(C)cc2)CC1`: the activation is inactive: 1.81%.

Take `COc1ccc(C(=O)NCC2(N3CCOCC3)CCCCC2)cc1OC`: the activation was inactive: 3.09%.

`O=C(NCC1(N2CCOCC2)CCCCC1)c1cc(Br)ccc1Cl`: the activation was inactive: -1.61%.

Regarding `COc1cc(C(=O)NCC2(N3CCOCC3)CCCCC2)cc(OC)c1C`, the activation was inactive: 0.92%.

For the compound `CCCOc1ccc(C(=O)NCC2(N(C)C)CCCCC2)cc1OC`, the activation was inactive: 0.71%.

Regarding `Cc1ccc(C(=O)NCC2(N(C)C)CCCCC2)o1`, the activation is inactive: 1.42%.

Consider `O=C(NCC1(N2CCCCC2)CCCCC1)c1cncc(Br)c1`, for which the activation is inactive: 1.99%.

For `CN1CCC(Nc2cccc(F)c2)CC1`, the activation is inactive: 3.56%.

In the case of `O=C(NCC1(N2CCOCC2)CCCCC1)c1cc(F)c(F)cc1Cl`, the activation was inactive: 0%.

Take `COc1cc(OC)c(C(=O)NCC2(N(C)C)CCCCC2)cc1OC`: the activation was inactive: 0.63%.

Consider `CN(C)c1cccc(C(=O)NCC2(N3CCCCC3)CCCCC2)c1`, for which the activation is inactive: 2.76%.

Turning to `COc1ccc(CN(CCCl)CCCl)cc1Cl`, the activation is inactive: 2.52%.

On to `CC(C)c1ccc(NC2CCN(C(=O)OC(C)(C)C)CC2)cc1`, for which the activation is inactive: 1.89%.

As to `COc1ccc(NC2CCN(C(=O)OC(C)(C)C)CC2)cc1`, the activation is inactive: -0.28%.

As to `CC(C)c1ccc(C(=O)NCC2(N3CCOCC3)CCCCC2)cc1`, the activation is inactive: 1.86%.

As to `CN1CCN(CCOC(=O)C(O)(c2ccccc2)c2ccccc2)CC1`, the activation is inactive: 0.25%.

`O=C(NCC1(N2CCOCC2)CCCCC1)c1cc(=O)[nH]c2ccccc12`: the activation is inactive: 1.45%.

With `COc1cc(C(=O)NCC2(N3CCCCC3)CCCCC2)ccc1OC(F)F`, the activation was inactive: 0.78%.

As to `O=C(NCC1(N2CCCCC2)CCCCC1)c1cccc(C(F)(F)F)c1`, the activation is inactive: -0.29%.

`O=C(NCC1(N2CCCCC2)CCCCC1)c1cccc([N+](=O)[O-])c1`: the activation is inactive: 1.8%.

On to `CSc1ccc(C(=O)NCC2(N3CCOCC3)CCCCC2)cc1`, for which the activation was inactive: 1.33%.

As for `N#CC1(Nc2ccccc2)CCN(CCc2ccccc2)CC1`, the activation was inactive: -0.61%.

Regarding `CCN1CCC(Nc2ccc(Cl)cc2)CC1`, the activation is inactive: 0.48%.

For the compound `O=C(NCC1(N2CCCCC2)CCCCC1)c1ccc(OC(F)F)cc1`, the activation was inactive: 2.34%.

Take `COc1cc(C(=O)NCC2(N(C)C)CCCCC2)ccc1OC(F)F`: the activation was inactive: 0.07%.

In the case of `CCOC(=O)N1CCC(Nc2cccc(C)c2)CC1`, the activation was inactive: -0.08%.

On to `CCOC(=O)N1CCC(Nc2ccc(F)cc2)CC1`, for which the activation is inactive: 0.05%.

`COc1ccc(NC2CCN(CCc3ccccc3)CC2)c(OC)c1`: the activation is inactive: 0.49%.

As to `O=C(NCC1(N2CCCCC2)CCCCC1)c1ccc(F)cc1`, the activation is inactive: 1.69%.

`CCCCOc1ccc(C(=O)NCC2(N3CCOCC3)CCCCC2)cc1`: the activation is inactive: 2.85%.

For the compound `O=P1(N(CCCl)CCCl)SCCCS1`, the activation is inactive: 0.56%.

With `CCOc1ccc(C)cc1CN(CCCl)CCCl`, the activation is inactive: 0.46%.

For the compound `O=C1CCN(Cc2ccccc2)CC1`, the activation was inactive: -0.3%.

As for `CCOC(=O)N1CCC(Nc2ccc(OC)cc2)CC1`, the activation was inactive: -1.16%.

For `COc1ccc(Cl)cc1C(=O)NCC1(N2CCOCC2)CCCCC1`, the activation is inactive: -0.76%.

As to `O=C(OC1CN2CCC1CC2)C1c2ccccc2Oc2ccccc21` (stereo not given), the activation was inactive: -3.1%.

For `O=C(NCC1(N2CCCCC2)CCCCC1)c1ccc(Cl)s1`, the activation was inactive: 1.66%.

For the compound `N#CC1(Nc2ccccc2)CCN(Cc2ccccc2)CC1`, the activation is inactive: 1.55%.

Consider `O=C(NCC1(N2CCOCC2)CCCCC1)c1cc2ccccc2o1`, for which the activation was inactive: 0.84%.

In the case of `Cc1cc(C)cc(N(C(=O)c2ccccc2)C2CCN(C(=O)OC(C)(C)C)CC2)c1`, the activation was inactive: -3.05%.

On to `O=C(NCC1(N2CCCCC2)CCCCC1)c1ccc(Cl)nc1`, for which the activation is inactive: -0.83%.

For `Cc1cccc(NC2(C#N)CCN(Cc3ccccc3)CC2)c1`, the activation was inactive: -1.28%.

Consider `CSc1ccccc1C(=O)NCC1(N2CCCCC2)CCCCC1`, for which the activation was inactive: 1.12%.

For `O=C(NCC1(N2CCCCC2)CCCCC1)c1cccs1`, the activation is inactive: 0.4%.

`O=C(NCC1(N2CCCCC2)CCCCC1)c1ccc(=O)[nH]c1`: the activation is inactive: -2.57%.

Consider `COc1ccc(C(=O)NCC2(N3CCCCC3)CCCCC2)c(OC)c1OC`, for which the activation was inactive: 1.14%.

On to `CC(C)(C)OC(=O)N1CCC(N(C(=O)c2ccccc2)c2ccc(F)cc2)CC1`, for which the activation was inactive: 0.78%.

Regarding `COc1ccc(C(=O)NCC2(N3CCCCC3)CCCCC2)cc1`, the activation is inactive: 0.44%.
